Assays:
STAT5b(136–703) = STAT5b(136–703) (Homo sapiens, UniProt P51692); experiment: Multiplexed Alpha assay, STAT5b-SH2 binding (AlphaScreen); conditions: read-out: IC50 STAT5b-SH2 binding (STAT5b), mean and SEM, three independent experiments
STAT3(136–705) = STAT3(136–705) (Homo sapiens, UniProt P40763); experiment: Multiplexed Alpha assay, STAT3-SH2 binding (AlphaLISA); conditions: read-out: IC50 STAT3-SH2 binding (STAT3), mean and SEM, three independent experiments

By UniProt entry, the sequences of proteins in these tests, tags left out. Residues count along the entry.
UniProt P51692, 136-703 limits assumed: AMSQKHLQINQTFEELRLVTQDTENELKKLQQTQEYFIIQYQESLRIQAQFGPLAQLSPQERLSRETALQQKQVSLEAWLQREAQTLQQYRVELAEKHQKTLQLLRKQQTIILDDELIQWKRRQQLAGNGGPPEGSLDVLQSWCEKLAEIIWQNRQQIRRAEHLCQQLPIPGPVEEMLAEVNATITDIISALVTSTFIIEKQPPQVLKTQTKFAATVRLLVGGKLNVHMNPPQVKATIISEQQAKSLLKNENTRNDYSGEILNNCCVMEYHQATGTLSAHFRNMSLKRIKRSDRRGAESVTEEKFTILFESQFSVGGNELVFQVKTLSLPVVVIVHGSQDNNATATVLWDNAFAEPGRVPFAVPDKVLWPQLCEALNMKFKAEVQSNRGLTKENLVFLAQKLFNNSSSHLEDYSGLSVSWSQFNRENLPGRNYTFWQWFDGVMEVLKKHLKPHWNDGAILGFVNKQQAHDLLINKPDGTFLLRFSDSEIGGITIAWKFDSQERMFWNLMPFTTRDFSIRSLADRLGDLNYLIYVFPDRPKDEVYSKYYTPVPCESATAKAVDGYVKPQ
UniProt P40763, 136-705 limits assumed: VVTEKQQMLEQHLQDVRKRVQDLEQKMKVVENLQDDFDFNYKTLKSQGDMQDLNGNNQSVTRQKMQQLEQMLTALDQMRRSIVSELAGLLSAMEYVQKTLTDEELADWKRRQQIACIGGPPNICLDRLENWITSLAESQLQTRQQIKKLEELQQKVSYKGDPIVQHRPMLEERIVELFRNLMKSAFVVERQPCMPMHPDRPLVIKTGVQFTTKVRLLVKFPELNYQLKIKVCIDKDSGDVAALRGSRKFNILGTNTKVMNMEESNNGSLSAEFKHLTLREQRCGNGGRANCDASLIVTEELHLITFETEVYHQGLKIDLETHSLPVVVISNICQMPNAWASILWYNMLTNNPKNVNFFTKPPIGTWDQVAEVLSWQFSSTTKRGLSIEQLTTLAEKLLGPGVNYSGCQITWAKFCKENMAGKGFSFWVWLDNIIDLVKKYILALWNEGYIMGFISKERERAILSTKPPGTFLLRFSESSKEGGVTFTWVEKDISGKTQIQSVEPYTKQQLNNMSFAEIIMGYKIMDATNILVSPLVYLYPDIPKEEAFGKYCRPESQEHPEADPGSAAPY

**Q.** Which results are given for O=C1C(Cl)=C(NCCNCCO)C(=O)c2ccccc21?
**A.** IC50 (STAT5b(136–703)): 20 µM; IC50 (STAT3(136–705)): 12 µM
